For data set [1] the following is noted: human, in vivo.
The subject of data set [2] is Encephalomyocarditis virus (ECM). The settings on record: cited from earlier work.

“IM IFN-beta-1a: intramuscular (IM) IFN-beta-1a, single 30-μg injection”: in data set [1], the temperature and pulse entry is reported as “mild increase”.

“AVONEX®: 166 amino acid glycoprotein produced by recombinant DNA technology in Chinese Hamster Ovary cells”: the “antiviral activity contained in 30 mcg” value in data set [2] (AVONEX 30 mcg) is “approximately 6 million IU”. The “specific activity (antiviral activity)” value in data set [2] (WHO natural interferon beta standard, Gb-23-902-531) is reported as “approximately 200 million international units (IU) of antiviral activity per mg of Interferon beta-1a”.

The values above are taken from patent US20180021288A1, “Neuroprotection in Demyelinating Diseases” (Biogen MA Inc., priority 2010, published 2018).
